Reference: PubChem BioAssay AID1224905 (ICCB-Longwood Screening Facility, Harvard Medical School, 2016)
Screen size: about 210,000 compounds; about 880 (0.42%) were called active.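 Rule for the calls: active = replicate mean at 85% of control or lower with very high polarization wells dropped (limit read from the data); inactive = the rest.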 What follows is part of a selection rich in actives, with near analogues and random picks from the rest.

By UniProt entry, the sequences of proteins in these tests, tags left out.
UniProt P08753, whole entry, looked up: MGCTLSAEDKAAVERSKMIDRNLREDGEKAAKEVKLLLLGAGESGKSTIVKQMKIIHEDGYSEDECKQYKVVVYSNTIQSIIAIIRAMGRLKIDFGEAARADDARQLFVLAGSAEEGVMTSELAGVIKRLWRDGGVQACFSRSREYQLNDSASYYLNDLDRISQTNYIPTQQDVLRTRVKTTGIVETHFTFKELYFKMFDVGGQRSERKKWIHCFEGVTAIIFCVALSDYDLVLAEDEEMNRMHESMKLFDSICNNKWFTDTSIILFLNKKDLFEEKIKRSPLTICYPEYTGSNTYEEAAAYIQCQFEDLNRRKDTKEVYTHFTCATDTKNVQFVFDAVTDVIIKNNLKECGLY

What follows are compounds tested against Guanine nucleotide-binding protein G(i) subunit alpha-3 (Rattus norvegicus) (UniProt P08753) (assay: disruptors of GIV-Galphai3 protein-protein interaction – biochemical, fluorescence polarization, FITC-GIV GBA peptide, rat Galphai3, primary screen (AID 1224905;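 note: lower values mean more displacement of the GIV peptide from Galpha-i3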)). Details: Galpha-i3/FITC-GIV peptide fluorescence polarization, 90 min; hits give low values; scaled: aluminum fluoride 0%, vehicle 100%.

| SMILES | percent of control (FP) |
| --- | --- |
| CN(C)/C=C/c1nc(C(F)(F)F)c(C#N)s1 | 20.7% (active) |
| O=C(Nc1ccc(-c2nc3ccccc3o2)cc1)C1COc2ccccc2O1 (centres undefined) | 140% (inactive) |
| Cc1nc2ccc(S(=O)(=O)NCC(=O)Nc3nccs3)cc2s1 | 103% (inactive) |
| O=C(CSc1ncnc2ccccc12)Nc1nc2ccccc2s1 | 102% (inactive) |
| CCS(=O)(=O)N1CCC2(CC1)Nc1ccc(Cl)cc1-n1cccc12 | 105% (inactive) |
| CC(C)c1cc(C2CCCN2Cc2ccc(Br)cc2)no1 (centres undefined) | 102% (inactive) |
| CC(=O)Oc1ccc(OC(C)=O)c2c1C1C=CC2CC1 | 101% (inactive) |
| CC(=O)Oc1ccccc1C(=O)N1CCN(c2ccccc2F)CC1 | 101% (inactive) |
| CC(=O)Oc1cccc2c1C(=O)C=CC2=O | 77.8% (active) |
| CCc1cc(C2CCCN2C(=O)NCC2CCCO2)on1 (centres undefined) | 106% (inactive) |
| O=C(NCc1ccccc1Cl)c1ccc2nc(N3CCOCC3)sc2c1 | 104% (inactive) |
| CCOC(=O)C1(C)/C(=N\Nc2ccc(Br)cc2)C(=O)C(=O)N1c1ccccc1 (centres undefined) | 101% (inactive) |
| CC(=O)N1CCc2cc(N3CC(C(=O)N4CCC5(CC4)OCCO5)CC3=O)ccc21 (centres undefined) | 107% (inactive) |
| CCC(NC(=O)C1CC(=O)N(c2ccc3c(c2)CCN3C(C)=O)C1)c1cccs1 (centres undefined) | 102% (inactive) |
| CCC(=O)N1CCc2cc(N3CC(C(=O)N4CCN(C(C)C)CC4)CC3=O)ccc21 (centres undefined) | 72.7% (active) |
| CCSCCOC(=O)C1=C(C)NC2=C(C(=O)CC(c3ccccc3)C2)C1c1ccc(OC)cc1OC (centres undefined) | 105% (inactive) |
| Cc1cc(Nc2cccc(C(F)(F)F)c2)nc2ccc(NC(=O)CSc3ccncc3)cc12 | 102% (inactive) |
| COc1ccc(N=C2NC(=O)/C(=C\c3ccc(OCC(C)C)cc3)S2)cc1 | 107% (inactive) |
| Cc1cc2c(cc3n2CC(C)(C(=O)NC2CCCCC2)N(Cc2ccc(F)cc2)C3=O)o1 (centres undefined) | 102% (inactive) |
| CCn1c(C)nc2c1C(=O)c1ccccc1C2=O | 102% (inactive) |
| Nc1nnc2c(n1)-c1ccccc1C2=O | 100% (inactive) |
| Cc1cc2c3c(ccc(N)c3n1)C(=O)c1ccccc1-2 | -32.2% (active) |
| S=C(Cc1ccc(CC(=S)N2CCOCC2)cc1)N1CCOCC1 | 105% (inactive) |
| O=C(Nc1ccc(O)c(-c2nc3ccccc3s2)c1)c1cccc(N2C(=O)CCC2=O)c1 | 104% (inactive) |

| SMILES | percent of control (FP) |
| --- | --- |
| CC1CCN(C(=O)CSc2nnc3c(n2)[nH]c2ccccc23)C(C)C1 (centres undefined) | 108% (inactive) |
| O=C1/C(=C/c2ccc(-c3cc(Cl)ccc3Cl)o2)C=C(c2ccccc2)N1c1ccc(F)cc1 | 112% (inactive) |
| CCOc1ccc(NC(=O)c2cn(C)c3c(c(C)nn3-c3ccc(F)cc3)c2=O)cc1 | 101% (inactive) |
| O=C(NN=c1c(=O)c2ccccc2c1=O)c1ccncc1 | 76.9% (active) |
| CC(C)/C=N/NC(=O)c1ccccc1 | 101% (inactive) |
| CC(=O)Nn1nc2c(n1)C(=NNC(=O)c1ccccc1)c1nn(NC(C)=O)nc1C2=NNC(=O)c1ccccc1 | 99.9% (inactive) |
| O=C(Nc1c(F)cc(F)cc1Br)c1cc(S(=O)(=O)N2CCN(c3ccccc3)CC2)ccc1F | 106% (inactive) |
| Cc1ccc(S(=O)(=O)N2CSC[C@@H]2C(=O)NCc2csc(C)n2)cc1 | 105% (inactive) |
| O=C(NCc1ccccn1)c1cc(-c2ccccc2O)no1 | 97.4% (inactive) |
| CCn1c(=O)c(=O)n(CC(=O)NCCC2=CCCCC2)c2cccnc21 | 101% (inactive) |
| Cn1c(=O)c(C#N)c(O)c2ccccc21 | 103% (inactive) |
| N#CC(C#N)=C(C#N)/C=C/n1c2ccccc2c2ccccc21 | 69.8% (active) |
| COc1ccc(Cl)cc1C(=O)Nc1cccc(-c2nc3cccnc3s2)c1 | 108% (inactive) |
| COC(=O)C1C(=O)NC(SCC(=O)Nc2ccccc2C)=C(C#N)C1c1ccc(Cl)cc1Cl (centres undefined) | 104% (inactive) |
| COc1cccc(C2=N/C(=C\c3ccccc3OC)C(=O)N2c2cccc(F)c2)c1 | 62.3% (active) |
| COc1cc(/C=C2/N=C(c3ccccc3)N(C)C2=O)cc(OC)c1OC | 106% (inactive) |
| COc1cccc(C2=N/C(=C\c3ccccc3OC)C(=O)N2c2ccc(C)cc2)c1 | 94% (inactive) |
| COc1ccc(NC(=O)C2CCCN(c3nc4ncccc4n4cccc34)C2)cc1 (centres undefined) | 128% (inactive) |
| CC1CCN(C(=O)Cn2nc(Cc3ccncc3)c3ccccc3c2=O)CC1 | 101% (inactive) |
| O=C1NC(=S)N(c2ccc(Br)cc2)C(=O)/C1=C/c1ccsc1 | 94.1% (inactive) |
| Cn1cccc1/C=C1\C(=O)NC(=S)N(c2ccccc2)C1=O | 80.1% (active) |
| O=C1NC(=O)N(c2ccccc2)C(=O)C1=Cc1c2ccccc2cc2ccccc12 | 101% (inactive) |
| Cc1ccc2c(c1)N(C(=O)CSc1nc3ccccc3o1)C(C)(C)c1ssc(=S)c1-2 | 101% (inactive) |
| COc1ccc(CNC(=O)c2cnc(N(C)C)nc2C)cc1 | 99% (inactive) |

| SMILES | percent of control (FP) |
| --- | --- |
| CCc1nn(CC(=O)NCc2ccc(OC)c(OC)c2)c(=O)c2cc3occc3n12 | 103% (inactive) |
| O=C(NCCCN1CCOCC1)C1CCN(c2cncnc2N2CCCCC2)CC1 | 113% (inactive) |
| CC1=C(C(=O)Nc2ccccc2Cl)C(c2cccs2)n2ncnc2N1 (centres undefined) | 98% (inactive) |
| COc1cccc(C2=CC(c3cccc(OC)c3)n3ncnc3N2)c1 (centres undefined) | 96% (inactive) |
| CSc1ccc(C2C=C(c3ccc(Cl)s3)Nc3ncnn32)cc1 (centres undefined) | -22.3% (active) |
| CSc1ccc(C2C=C(c3cccs3)Nc3ncnn32)cc1 (centres undefined) | -22.3% (active) |
| CC1=C(C(N)=O)C(c2ccc(Br)cc2)n2ncnc2N1 (centres undefined) | 111% (inactive) |
| Cc1ccc(-n2nc3c(c2NC(=O)c2ccc(S(=O)(=O)N4CCCC4)cc2)CSC3)c(C)c1 | 102% (inactive) |
| O=C(c1cc2c(s1)-c1ccsc1CC2)N1CCN(c2ccccn2)CC1 | 109% (inactive) |
| COc1ccc2oc(-c3noc(-c4ccnn4C)n3)c(C)c2c1 | 106% (inactive) |
| Cc1cc(C)n(CC(=O)NC2CCCC2)c(=O)c1S(=O)(=O)c1ccc(Cl)cc1 | 104% (inactive) |
| CCN1CCN(C(=O)c2sc3nc(C)nc(N4CCN(c5ccccn5)CC4)c3c2C)CC1 | 104% (inactive) |
| COCCNC(=O)c1ccc(Cn2c(SCC(=O)NCc3ccccc3)nc3ccc(Br)cc3c2=O)cc1 | 97.2% (inactive) |
| N#C/C(=C\c1ccc(-c2ccccc2)o1)C(=O)Nc1ccccc1 | 36.5% (active) |
| CCOC(=O)c1ccc(-c2ccc(/C=C(\C#N)C(=O)Nc3ccc(OCC)cc3)o2)cc1 | 102% (inactive) |
| CCOC(=O)c1ccc(-c2ccc(/C=C(\C#N)C(=O)Nc3ccc(C)cc3)o2)cc1 | 99.2% (inactive) |
| CCNC(=O)N1CCCC(c2nc(C(C)C)cs2)C1 (centres undefined) | 105% (inactive) |
| O=C(CN1CCN(C(=O)c2cccc(Cl)c2)CC1)Nc1nnc(-c2ccccc2)s1 | 98.2% (inactive) |
| CCOc1ccc(NC(=O)Cn2c(SCC)nc3ccccc32)cc1 | 98.2% (inactive) |
| Cc1cc2nc3[nH]c4ccccc4c3nc2cc1C | 109% (inactive) |
| O=c1[nH]c2c(c(=O)n1Cc1ccccc1)CCC2 | 110% (inactive) |
| Cc1cc2nc3c(=O)n(Cc4ccccc4)c(=O)[nH]c3nc2cc1N | 72.2% (active) |
| Cc1sc(NC(=O)c2ccccc2)c(C(Nc2ccccn2)c2cccnc2)c1C (centres undefined) | 102% (inactive) |
| Fc1ccccc1CSc1nccn2nc(-c3ccc(Br)cc3)cc12 | 111% (inactive) |

| SMILES | percent of control (FP) |
| --- | --- |
| Cc1ccc(C2(c3ccc(C)cc3)CC2C(=O)Nc2cccc(C(F)(F)F)c2)cc1 (centres undefined) | 104% (inactive) |
| Cc1ccc(OCCn2cc(C(=O)c3ccccc3)c3ccccc32)cc1 | 99.6% (inactive) |
| Cc1ccc(OCCn2cc(/C=C3/C(=O)Nc4cc(Cl)ccc43)c3ccccc32)cc1C | 35.2% (active) |
| COc1ccccc1OCCCn1cc(/C=C2/C(=N)N3C=CSC3=NC2=O)c2ccccc21 | 103% (inactive) |
| CCc1cc2c(NC3CCCCC3)ncnc2s1 | 117% (inactive) |
| O=c1sc2ccccc2c2nc[nH]c12 | 99.7% (inactive) |
| O=C(Cn1c2c(c(-c3ccccc3Cl)cc1=O)CCC2)NC1CCCCC1 | 108% (inactive) |
| CNC(=O)CSc1nnc2[nH]c(=O)cc(C)n12 | 108% (inactive) |
| Cc1cc(N2CCN(c3ccccc3)CC2)n2c(nc3ccccc32)c1C#N | 99.6% (inactive) |
| Cc1c(Cc2ccccc2)c(N2CCCCC2)n2c(nc3ccccc32)c1C#N | 146% (inactive) |
| N#Cc1c(N2CCCCCC2)ncc2cc3ccccc3nc12 | -18.1% (active) |
| Cc1cc(C(=O)NCCN2CCOCC2)c2c(=O)n(C)c(=O)n(C)c2n1 | 105% (inactive) |
| CC(=O)N[C@H]1[C@H](Oc2ccc(C)cc2)O[C@H](COC(C)=O)[C@@H](OC(C)=O)[C@@H]1OC(C)=O | 131% (inactive) |
| CCOC(=O)CSc1ncn[nH]1 | 102% (inactive) |
| CCn1nc(C)cc1-c1nnc(SCC(=O)c2ccc(C)cc2)o1 | 108% (inactive) |
| CCN(CC)c1ccc2oc(=O)c(C)nc2c1 | -40.7% (active) |
| CCN(CC)c1ccc2cc(C(=O)O)c(=O)oc2c1 | 115% (inactive) |
| CCN(CC)c1ccc2cc(-c3csc(-c4nc(-c5cc6ccc(N(CC)CC)cc6oc5=O)cs4)n3)c(=O)oc2c1 | 109% (inactive) |
| Cc1c(C(=O)NCC(c2ccccc2)c2c[nH]c3ccccc23)oc2ccc(Cl)cc12 (centres undefined) | 105% (inactive) |
| O=C1NC(=O)/C(=C/c2ccc(-c3ccc([N+](=O)[O-])cc3Br)o2)S1 | 62.8% (active) |
| O=C1N/C(=C/c2ccc(-c3ccc([N+](=O)[O-])cc3Br)o2)C(=O)N1Cc1ccc(Cl)cc1 | 146% (inactive) |
| N=C1S/C(=C\c2ccc(-c3ccccc3[N+](=O)[O-])o2)C(=O)N1c1ccc2c(c1)OCO2 | 114% (inactive) |
